1 substance from patent US7585852B2, “Cobalamine derivatives useful for diagnosis and treatment of abnormal cellular proliferation” (Solidago AG, priority 2003, dated 2009) can be followed below.

This series is described as follows: Biodistribution of radiolabeled cyanocobalamin derivatives in tumor bearing mice. It counts as in vivo, balb/c mice. To be noted: 24 h after i.v. injection of radioactive labeled derivative, tumor bearing mice (melanoma B16-F10), vitamin-free diet, figures use percent of injected radioactivity per gram of tissue. As to the method: For in vivo studies and for binding studies to the transport vectors, very high specific activity was demanded. Therefore, 100 μl of the labeled solution were injected to an analytical HPLC system to separate the hot from the cold vitamin derivative. The eluate fraction with the highest gamma activity (ca. 300 μl) was diluted with normal saline to a concentration of 10 μCi per animal before i.v. injection. Separation condition were: acetate buffer, XTerra RP8 column, gradient: 0% methanol (0 min), 30% methanol (15 min), 100% methanol (25 min) for the b and d-derivatives, and the TEAP system as described by Schibli et al. (Bioconjugate Chem. 2000, 343-351) for the other compounds.
For biodistribution studies with ^57Co-cyanocobalamin, 0.2 μCi/1 ng of the radiolabeled cyanocobalamin is mixed with 180 μl normal saline and injected i.v. in tumor bearing balb/c mice (syngeneic mouse melanoma B16-F10). After a specified time (5 min to 24 h), animals are sacrificed, the organs weighted and counted on a gamma counter. For biodistribution studies with ^99mTc-labeled cyanocobalamin, 10 μCi/0.5 ng of the radiolabelled cyanocobalamin is mixed with normal saline and used as before. For biodistribution with ^111In-labeled cyanocobalamin, 2 μCi/5 ng of the radiolabeled cyanocobalamin is mixed with normal saline and used as before. To study the effect of Vitamin B12 deficient food, the biodistribution of labeled cyanocobalamin is compared in mice fed with normal food with the biodistribution in mice fed with vitamin B12 deficient food for a period of 2 weeks.

On to “Cyanocobalamin-b-butyl-aminocarboxymethyl-His-OMe [Example 6]”, for which the Tissue distribution: Blood stood at 2.4 %ID/g, the Tissue distribution: Kidney amounted to 15.8 %ID/g and the Tissue distribution: Tumor is 7.3 %ID/g. Also, the “Tissue distribution: Liver” value (in %ID/g) is 7.40.
